One molecule from patent publication US20230009539A1 (CLEVELAND CLINIC FOUNDATION, published 2023) can be followed below.

The target of the test is T1, FLAG-tagged mouse wild-type Act1 (WT) (mouse, UniProt Q8N7N6 1-555).
T1 construct: also called flag-tagged mAct1; flag-Act1; not shown: FLAG tag
T1 sequence (looked up): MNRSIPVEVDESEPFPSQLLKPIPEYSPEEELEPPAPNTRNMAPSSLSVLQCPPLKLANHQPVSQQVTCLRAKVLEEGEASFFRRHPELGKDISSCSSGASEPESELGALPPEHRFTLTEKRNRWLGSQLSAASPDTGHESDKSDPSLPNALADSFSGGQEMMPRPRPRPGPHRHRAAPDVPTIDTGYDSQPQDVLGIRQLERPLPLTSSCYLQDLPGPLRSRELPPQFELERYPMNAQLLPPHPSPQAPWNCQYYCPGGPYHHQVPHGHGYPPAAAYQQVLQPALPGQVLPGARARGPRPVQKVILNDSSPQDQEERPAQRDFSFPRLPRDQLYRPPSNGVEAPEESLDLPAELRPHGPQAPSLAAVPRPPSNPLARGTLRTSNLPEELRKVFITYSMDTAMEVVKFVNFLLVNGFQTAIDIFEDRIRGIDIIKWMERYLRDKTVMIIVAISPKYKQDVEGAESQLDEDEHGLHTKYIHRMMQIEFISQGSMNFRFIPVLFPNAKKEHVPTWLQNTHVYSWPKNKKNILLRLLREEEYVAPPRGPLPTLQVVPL
The test is described as follows: co-immunoprecipitation with anti-FLAG from Act1-/- MEFs reconstituted with FLAG-Act1 WT, IL-17 lanes 0, .5, 1, 2, 3 (sheet prints 'min'), Western blot. An excerpt: Data represent mean±SD; **, p<0.01. F. In situ PLA assay in HeLa cells transfected with the indicated expression constructs. Primary mouse antibodies against Flag-tag and rabbit antibodies against HA-tag were used. The red dots indicate the interaction of the two proteins including Dcp1-Flag/Act1-HA, IL-17-RA-Flag/Act1-HA, HuR-Flag/Act1-HA and SF2-Flag/Act1-HA. The co-transfection of IRAK1-Flag and Act1-HA was used as a negative control for PLA assay. Nuclei stained with DAPI. The expression levels of the transfected constructs were also analyzed by western analyses shown below the imaging data. […] Data represent mean±SD; **, p<0.01. […] The quantification is based on the analysis of over 50 expressing cells, followed by two-tailed Student's t-test. Data represent mean±SD; *, p<0.05, **, p<0.01. I. Act1−/−MEFs reconstituted by retroviral infection with either FLAG-tagged mouse wild-type Act1 (WT) or SEFIR1 deletion mutant were treated with IL-17 (50 ng/ml) for the indicated times. The cell lysates were immunoprecipitated (IP) with anti-FLAG followed by Western blot analysis using antibodies as indicated. Data are representative of two independent experiments. […]
(In general: Immunoblotting shows a protein as a band on a membrane.)

B1: SF2 (endogenous, MEFs) (other, mouse (MEFs), UniProt Q6PDM2 2-248, looked up)
chain: SGGGVIRGPAGNNDCRIYVGNLPPDIRTKDIEDVFYKYGAIRDIDLKNRRGGPPFAFVEFEDPRDAEDAVYGRDGYDYDGYRLRVEFPRSGRGTGRGGGGGGGGGAPRGRYGPPSRRSENRVVVSGLPPSGSWQDLKDHMREAGDVCYADVYRDGTGVVEFVRKEDMTYAVRKLDNTKFRSHEGETAYIRVKVDGPRSPSYGRSRSRSRSRSRSRSRSNSRSRSYSPRRSRGSPRYSPRHSRSRSRT
For B1, the binding result is listed as “binds”.
